From patent US9650684B2, “Methods of identifying and using general or alternative splicing inhibitors” (The Trustees of the University of Pennsylvania, priority 2009, dated 2017)

The chains behind the UniProt entries cited, without tags or fusion partners. Where a name states a change or a piece, a line headed by the entry shows the natural chain unless it says otherwise.
UniProt P49759: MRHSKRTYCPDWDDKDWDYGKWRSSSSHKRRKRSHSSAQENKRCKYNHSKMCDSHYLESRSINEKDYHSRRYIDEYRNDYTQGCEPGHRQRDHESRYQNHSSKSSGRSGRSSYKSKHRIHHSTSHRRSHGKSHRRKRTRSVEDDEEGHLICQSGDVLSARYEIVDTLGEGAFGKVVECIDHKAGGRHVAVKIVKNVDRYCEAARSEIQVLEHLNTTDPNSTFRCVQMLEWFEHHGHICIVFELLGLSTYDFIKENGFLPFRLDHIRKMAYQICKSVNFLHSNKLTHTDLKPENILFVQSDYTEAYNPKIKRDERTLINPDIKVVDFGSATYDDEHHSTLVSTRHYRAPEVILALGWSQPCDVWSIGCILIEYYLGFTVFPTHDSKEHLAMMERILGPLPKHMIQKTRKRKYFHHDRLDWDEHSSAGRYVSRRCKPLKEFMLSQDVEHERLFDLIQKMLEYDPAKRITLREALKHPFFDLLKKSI
UniProt P49761, whole entry, species assumed: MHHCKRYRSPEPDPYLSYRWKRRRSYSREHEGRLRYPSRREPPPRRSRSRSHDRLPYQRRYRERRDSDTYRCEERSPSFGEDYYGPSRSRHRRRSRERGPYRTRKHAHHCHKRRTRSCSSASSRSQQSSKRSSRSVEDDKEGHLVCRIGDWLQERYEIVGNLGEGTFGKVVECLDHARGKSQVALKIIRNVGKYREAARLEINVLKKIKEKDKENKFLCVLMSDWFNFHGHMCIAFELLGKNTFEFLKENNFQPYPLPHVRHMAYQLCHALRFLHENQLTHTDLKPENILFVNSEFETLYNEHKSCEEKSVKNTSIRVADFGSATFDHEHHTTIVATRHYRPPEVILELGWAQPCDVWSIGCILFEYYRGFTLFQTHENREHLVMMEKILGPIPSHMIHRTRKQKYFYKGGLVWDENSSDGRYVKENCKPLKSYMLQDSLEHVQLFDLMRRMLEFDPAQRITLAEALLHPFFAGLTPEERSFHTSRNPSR

How the values were obtained:
Clk1 = Clk1 (Homo sapiens, UniProt P49759); assay: In vitro kinase profiling; format: biochemical
Method: (§1) Several activated recombinant kinases including Clk1-4, SRPK1-2, JNK and ERK were incubated with a synthetic SR-rich substrate peptide in the present of 50 μM ATP and ^32P-ATP cocktail and kinase assay buffer (5 mM MOPS, pH 7.2, 2.5 mM β-glycerol-phosphate, 5 mM MgCl2, 1 mM EGTA, 0.4 mM EDTA, 0.05 mM DTT) for 20 minutes. Either DMSO or chlorhexidine was also added at various concentrations. The assay was terminated by spotting 10 μl of the reaction mixture onto phosphocellulose P81 plate, which was washed 3 times for 15 minutes each in a 1% phosphoric acid solution. The radioactivity on the P81 plate was counted in the presence of scintillation fluid in a TriLux scintillation counter.
(§2) . Therefore, its effects were tested on several kinases that are known to target SR proteins. […] . Whereas the other SR protein kinases (SRPK1 and SRPK2) as well as other unrelated kinases (ERK1 and JNK1) were not targeted by chlorhexidine (FIG. 7B). […] .

Clk3 = Clk3 (Homo sapiens, UniProt P49761); assay: In vitro kinase profiling; format: biochemical
Method: as §1, §2

[H]/N=C(\N/C(=N/[H])NCCCCCCNC(=N)NC(=N)Nc1ccc(Cl)cc1)Nc1ccc(Cl)cc1 [chlorhexidine, (1E)-2-[6-[[amino-[[amino-(4-chloroanilino)methylidene]amino]methylidene]amino]hexyl]-1-[amino-(4-chloro-anilino)methylidene]guanidine]
IC50 (Clk1): > 50 µM
IC50 (Clk3): 15 µM
